Laboratory results published in ChEMBL document CHEMBL3244068 (J Med Chem, 1978).

Tests used:
Rattus norvegicus = species: Rattus norvegicus; assay: Toxicity in rat allografted with rat Walker 256 cells; format: organism-based
[1] = Ratio of LD50 for rat allografted with rat Walker 256 cells to ED90 for rat Walker 256 cells allografted in rat

SMILES	log1/CLD50 (Rattus norvegicus)	Ratio [1]
Nc1ccc(N(CCCl)CCCl)cc1	4.82	
ICCN(CCI)c1ccccc1	3.85	
CC(=O)Nc1ccc(N(CCCl)CCCl)cc1	3.99	
BrCCN(CCBr)c1ccccc1	4.4	
O=C(O)c1ccc(N(CCCl)CCCl)cc1	3.03	
CC(=O)Sc1ccc(N(CCCl)CCCl)cc1	3.16	
CC(=O)Nc1ccc(N(CCBr)CCBr)cc1	4.82	
NC(=O)c1ccc(N(CCCl)CCCl)cc1	2.92	
O=Cc1ccc(N(CCCl)CCCl)cc1	2.78	
NS(=O)(=O)c1ccc(N(CCBr)CCBr)cc1	3.13	
O=C(O)c1ccc(N(CCBr)CCBr)cc1	3.55	
NS(=O)(=O)c1ccc(N(CCCl)CCCl)cc1	2.94	
CC(=O)Nc1ccc(N(CCI)CCI)cc1	4.5	
Oc1ccc(N(CCCl)CCCl)cc1	4.07	
Oc1ccc(N(CCBr)CCBr)cc1	5	3.5
